Data taken from patent US20260055108A1, “TRIAZINE COMPOUNDS AND USES THEREOF” (HUTCHMED LIMITED, priority 2022, published 2026).

Sequences of proteins named here, by UniProt entry; tags and fusion partners are left off. Residues count along the entry.
UniProt O00255, 2-610: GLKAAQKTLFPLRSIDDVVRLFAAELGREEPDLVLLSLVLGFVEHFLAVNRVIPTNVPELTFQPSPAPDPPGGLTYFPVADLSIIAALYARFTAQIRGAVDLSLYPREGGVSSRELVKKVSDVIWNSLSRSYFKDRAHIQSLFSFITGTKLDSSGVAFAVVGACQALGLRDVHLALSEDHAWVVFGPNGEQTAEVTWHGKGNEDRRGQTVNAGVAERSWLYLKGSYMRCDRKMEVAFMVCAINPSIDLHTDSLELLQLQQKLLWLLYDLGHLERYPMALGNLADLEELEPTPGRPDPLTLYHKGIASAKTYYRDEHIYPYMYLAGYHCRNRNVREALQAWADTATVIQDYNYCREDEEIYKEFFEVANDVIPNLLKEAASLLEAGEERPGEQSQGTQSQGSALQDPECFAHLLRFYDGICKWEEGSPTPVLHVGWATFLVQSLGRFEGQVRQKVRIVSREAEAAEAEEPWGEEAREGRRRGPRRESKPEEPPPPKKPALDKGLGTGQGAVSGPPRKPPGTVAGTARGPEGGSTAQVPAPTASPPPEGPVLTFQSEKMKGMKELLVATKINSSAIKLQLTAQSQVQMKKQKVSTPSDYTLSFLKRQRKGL

Molecular target: Recombinant human Menin protein (2-610) / MLL polypeptide binding (Homo sapiens (Human), UniProt O00255)
Experiment: Menin and MLL protein binding at a molecular level (fluorescence polarization method)
Settings: inhibition of Menin / MLL polypeptide binding
Excerpt: Example 3: Determination of the Activity of the Compounds of the Present Invention on Menin and MLL Protein Binding at a Molecular Level (Fluorescence Polarization Method)
1. Reagents, Materials and Instruments:
• Recombinant human Menin protein (2-610): ChemPartner, CP2021020801; • MLL polypeptide (6-FAM-Ahx-SG-40): GL Biochem, 865700; • Trizma® hydrochloride buffer solution (Tris): Sigma, T2194-1 L; • NaCl: Invitrogen, AM9760G; • TCEP: Sigma, 646547; • DMSO: Sigma, D4540; • 384-well plate: Corning, 4514; • Envision: PerkinElmer.
2. Preparation of Reaction Solutions […]
The vertical polarization S value and the horizontal polarization P value (excitation wavelength was 480 nm, and emission wavelength was 535 nm) were measured with Envision. […]
• calculated by using software XL-Fit™ (version 5.3) supplied by ID Business Solutions (Guildford, UK), which is an additional software to Microsoft Excel.

## CCN(C(=O)c1cc(F)ccc1Oc1nncnc1N1CC2(CCN(CC3CCN(C(=O)C4(C(=O)N(C)C)CC4)CC3)CC2)C1)C(C)C [Compound 19, 2-((5-(7-((1-(1-(dimethylcarbamoyl)cyclopropane-1-carbonyl)piperidin-4-yl)methyl)-2,7-diazaspiro[3.5]nonan-2-yl)-1,2,4-triazin-6-yl)oxy)-N-ethyl-5-fluoro-N-isopropylbenzamide]
  IC50: 369 nM
